These are literature values, as cited in patent US20060188566A1, “Nanoparticulate formulations of docetaxel and analogues thereof” (Elan Pharma International Limited, priority 2005, published 2006).

For this data set the following is noted: in vivo; cited from earlier work.

As for albumin-bound paclitaxel, the solvent-mediated toxicities entry was “not seen”.
